Assay results from US20120231013A1.

By UniProt entry, the sequences of proteins in these tests, tags left out. Residues count along the entry.
UniProt P35625, 24-211 limits assumed: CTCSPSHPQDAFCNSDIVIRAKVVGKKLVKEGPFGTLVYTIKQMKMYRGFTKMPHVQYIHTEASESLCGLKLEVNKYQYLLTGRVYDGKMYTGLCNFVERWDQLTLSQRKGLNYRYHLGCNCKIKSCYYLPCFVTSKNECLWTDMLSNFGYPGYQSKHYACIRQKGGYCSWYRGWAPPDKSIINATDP

Biological target: recombinant human TIMP-3 (human) (UniProt P35625)
Assay: cell-based or functional assay

% of the inhibitory activity of TIMP-3 + peptide compared to TIMP-3 alone, 16 nM: 106%
% of the inhibitory activity of TIMP-3 + peptide compared to TIMP-3 alone, 80 nM: 106%
% of the inhibitory activity of TIMP-3 + peptide compared to TIMP-3 alone, 400 nM: 102%
% of the inhibitory activity of TIMP-3 + peptide compared to TIMP-3 alone, 2000 nM: 103%
Substance: LRP-1 peptide LA10
